Test results reported in article PMC5656836, “Distinct activation mechanisms trigger the trypanocidal activity of DNA damaging prodrugs” (Molecular Microbiology, 2017).

Test system: RH1^RC1 T. brucei
Type: cell-based
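For ratio (fold difference in EC50 between RH1^RC1 and wild type) in this document: resistant clone selected by stepwise exposure to the aziridinyl benzoquinone prodrug in culture.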

Compound | Susceptibility of RH1 selected (RH1^RC) lines relative to wild type | ratio (fold difference in EC50 between RH1^RC1 and wild type)
NC(=O)c1cc(N2CC2)c([N+](=O)[O-])cc1[N+](=O)[O-] [CB1954] | cross‐resistance | 
S=P(N1CC1)(N1CC1)N1CC1 [ThioTEPA] |  | 1.4
